Reference: ChEMBL document CHEMBL5634116, “Strategies for developing retinoic acid receptor alpha-selective antagonists as novel agents for male contraception” (Eur J Med Chem, 2023)

Assay: Plasma protein binding in CD-1 mouse assessed as recovery fraction at 10^-5 M
Format: ADME, cell-free
Details: 10 µM, dose 1 10^-5M

Compound: Cc1ccc(C2=CC(C)(C)Oc3ccc(C(=O)Nc4ccc(C(=O)O)cc4)cc32)cc1
- Drug recovery: 100%
